For data set [1], the system named is recurrent or metastatic HNSCC. The settings on record: cetuximab monotherapy, platinum-resistant HNSCC; 95% CI 7–21; cited from earlier work.
Data set [2] has as its system patients with recurrent or metastatic HNSCC. In words: adverse events graded by NCI-CTCAE version 4.0, all cycles of treatment. The note with it: ten patients.

Data on one substance can be found in paper PMC6561471 (The Lancet. Oncology, 2018).

Consider cetuximab, for which the overall tumour response in data set [1] was 13%. Also, the “paronychia attributable to cetuximab, patients” value in data set [2] was 32%.
